Experiment [1] concerns the target BIR3 domain of XIAP (Homo sapiens (Human), UniProt P98170). Briefly: TR-FRET assay for BIR3 (inhibition of binding of XIAP BIR3 domain to SMAC-derived Peptide A). The settings on record: read-out: IC50 BIR3. Background: TR-FRET usually uses a lanthanide donor and a delayed reading to cut background.
Experiment [2] has as its target BIR2 domain of XIAP (Homo sapiens (Human), UniProt P98170, C202A/C213G). Briefly: TR-FRET assay for BIR2 (inhibition of binding of XIAP BIR2 domain to SMAC-derived Peptide A). The settings on record: 6x His-tagged BIR2 domain (aa 124-240 of XIAP) 10 nM, Peptide A 20 nM.
[3] abbreviates: 6x His-tagged BIR3 domain (aa 241-356 of XIAP) 10 nM, Peptide A 20 nM, TR-FRET.

Protein sequences, listed by entry. Tags and fused reporters are not part of them. Chains listed by the source or under a name are the forms on record and can include a tag or linker. Residues count along the entry.
UniProt P98170, 241-356 with tags or gaps limits assumed: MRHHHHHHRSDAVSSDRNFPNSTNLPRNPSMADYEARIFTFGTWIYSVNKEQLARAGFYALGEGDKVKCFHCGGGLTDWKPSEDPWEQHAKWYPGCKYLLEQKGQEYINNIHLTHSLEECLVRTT
UniProt P98170, 124-240 with tags or gaps C202A/C213G limits assumed: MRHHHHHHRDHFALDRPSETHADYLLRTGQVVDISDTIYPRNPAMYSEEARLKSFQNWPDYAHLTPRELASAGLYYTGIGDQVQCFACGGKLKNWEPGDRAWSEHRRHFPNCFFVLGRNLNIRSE

Structures can show the parent of a compound that is named as a salt. Where two headings read alike, the source gives them in different places. A value given as a limit tells only on which side of the number the result lay.

As to `CN[C@@H](C)C(=O)N[C@H]1CN(C(=O)c2ccc(F)cc2)c2cc(C#N)ccc2N(Cc2nn(-c3ccccc3C#N)c3ccccc23)C1=O` [Example 163, (S)-N-((S)-7-cyano-1-((1-(2-cyanophenyl)-1H-indazol-3-yl)methyl)-5-(4-fluorobenzoyl)-2-oxo-2,3,4,5-tetrahydro-1H-benzo[b][1,4]diazepin-3-yl)-2-(methylamino)propanamide hydrochloride], the IC50 (in general, the concentration needed to halve the response being measured) is over 54800 nM in experiment [1] (setting [3]) and 17.2 nM in experiment [2].

As to `CN[C@@H](C)C(=O)N[C@H]1CN(C(=O)c2ccc3[nH]ccc3c2)c2ccccc2N(Cc2c(C)ccc3ccccc23)C1=O` [Example 145, (25)-N-[(3S)-1-(1H-indole-5-carbonyl)-5-[(2-methylnaphthalen-1-yl)methyl]-4-oxo-2,3-dihydro-1,5-benzodiazepin-3-yl]-2-(melhylamino)propanamide], the half-maximal inhibitory concentration (IC50) in experiment [1] (setting [3]) is over 54800 nM; in experiment [2], 26.5 nM.

For `CCN[C@@H](C)C(=O)N[C@H]1CN(C(=O)CS(C)(=O)=O)c2ccccc2N(Cc2c(OC)ccc3c(Br)cccc23)C1=O` [Example 156, (S)-N-((S)-1-((5-bromo-2-methoxynaphthalen-1-yl)methyl)-5-(2-(methylsulfonyl)acetyl)-2-oxo-2,3,4,5-tetrahydro-1H-benzo[b][1,4]diazepin-3-yl)-2-(ethylamino)propanamide hydrochloride], the IC50 in experiment [1] (setting [3]) was over 54800 nM; in experiment [2], 42.9 nM.

In the case of `CN[C@@H](C)C(=O)N[C@H]1CN(C(=O)c2ccccn2)c2ccccc2N(Cc2c(OC)ccc3cc(Br)ccc23)C1=O` [Example 89a, (S)—N—[(S)-1-(6-Bromo-2-methoxy-naphthalen-1-ylmethyl)-2-oxo-5-(pyridine-2-carbonyl)-2,3,4,5-tetrahydro-1H-benzo[b][1,4]diazepin-3-yl]-2-methylamino-propionamide hydrochloride], the 50% inhibitory concentration (IC50) in experiment [1] came to 44500 nM; in experiment [2], 6 nM.

Turning to `CN[C@@H](C)C(=O)N[C@H]1CN(C(=O)c2ccc(C(C)=O)cc2)c2ccccc2N(CC(=O)Nc2nccs2)C1=O` [Example 106, (25)-N-[(35)-1-(4-acetylbenzoyl)-4-oxo-5-[2-oxo-2-(1,3-thiazol-2-ylamino)ethyl]-2,3-dihydro-1,5-benzodiazepin-3-yl]-2-(methylamino)propanamide;2,2,2-trifluoroacetic acid], the IC50 in experiment [1] (setting [3]) is over 51500 nM; in experiment [2], 238 nM.

`CN[C@@H](C)C(=O)N[C@H]1CN(C(=O)CCOC)c2cc(C(F)(F)F)ccc2N(Cc2c(C3CC3)cnc3ccccc23)C1=O` [Example 185, (S)-N-((S)-1-((3-cyclopropylquinolin-4-yl)methyl)-5-(3-methoxypropanoyl)-2-oxo-7-(trifluoromcthyl)-2,3,4,5-tetrahydro-1H-benzo[b][1,4]diazepin-3-yl)-2-(methylamino)propanamide]: the figures for the concentration for half-maximal inhibition (IC50) in experiment [1] (setting [3]) and in experiment [2] were 33200 nM and 60.1 nM, respectively.

For `CN[C@@H](C)C(=O)N[C@H]1CN(C(=O)c2ccc(C(C)=O)cc2)c2ccccc2N(Cc2c(OC(F)F)ccc3ccccc23)C1=O` [Example 69b], the IC50 in experiment [1] (setting [3]) was found to be 46600 nM; in experiment [2], 26 nM.

As for `CN[C@@H](C)C(=O)N[C@H]1CN(C(=O)CS(C)(=O)=O)c2ccccc2N(Cc2c(OC)ccc3c(Br)cccc23)C1=O` [Example 81, (S)—N—((S)-1-((5-Bromo-2-methoxynaphthalen-1-yl)methyl)-5-(2-(methylsulfonyl)acetyl)-2-oxo-2,3,4,5-tetrahydro-1H-benzo[b][1,4]diazepin-3-yl)-2-(methylamino)propanamide hydrochloride], the figures for the IC50 in experiment [1] and in experiment [2] were over 54800 nM and 24 nM, respectively.

Regarding `CN[C@@H](C)C(=O)N[C@H]1CN(C(=O)c2ccc(F)cc2)c2cc(C#N)ccc2N(Cc2c(OC)ccc3cc(Br)ccc23)C1=O` [Example 154, (S)-N-((S)-1-((6-bromo-2-methoxynaphthalen-1-yl)methyl)-7-cyano-5-(4-fluorobenzoyl)-2-oxo-2,3,4,5-tetrahydro-1H-benzo[b][1,4]diazepin-3-yl)-2-(methylamino)propanamide hydrochloride], the results for the IC50 in experiment [1] (setting [3]) and in experiment [2] were 19200 nM and 11.5 nM, respectively.

For `CN[C@@H](C)C(=O)N[C@H]1CN(C(=O)c2cccc(C(C)O)c2)c2ccccc2N(Cc2c(C)ccc3ccccc23)C1=O` (stereo partly drawn) [Example 119, (2S)-N-[(3S)-1-[3-(1-hydroxyethyl)benzoyl]-5-[(2-methylnaphthalen-1-yl)methyl]-4-oxo-2,3-dihydro-1,5-benzodiazepin-3-yl]-2-(methylamino)propanamide;hydrochloride], the IC50 in experiment [1] (6x His-tagged BIR3 domain (aa 241-356 of XIAP) 10 nM, Peptide A 20 nM, TR-FRET, hydrochloride) amounted to 21700 nM; in experiment [2], 57.5 nM.

The record behind these values is patent publication US10053431B2, “Tetrahydro-benzodiazepinones” (priority 2013, dated 2018).
